# Reference: patent US8497349B2, “Use of multivalent synthetic ligands of surface nucleolin for treating cancer or inflammation” (Centre National de la Recherche Scientifique (CNRS), priority 2006, dated 2013)
# How the values were obtained:
# [1] = test system: MDA-MB-231 human mammary carcinoma line; assay: Anchorage-independent growth of MDA-MB-231 on wet agar (colony count); assay type: cell-based; conditions: 1 μM of HB-19; 10 days
# Experimental: FIG. 6. Effect of anti-nucleolin (anti Nu) (A), isotype IgG (B) and HB-19 (C) on MDA-MB231 growth on wet agar. MDA-MB231 cells are cultured in a culture medium with 0.35% agar on a 0.6% agar matrix. After 10 days in culture, colonies with a diameter greater than 50 μm were counted. 5 areas per well and each point in triplicate, (**p<0.01).
# In parallel to these studies on cell proliferation, the role of nucleolin on anchorage-independent growth, the phenotype characteristic of transformed cells, was tested in a growth model on wet agar using the human mammary carcinoma line, MDA-MB-231, as well as a mouse melanoma line, B16-BL6.
# In these experiments, cells were cultured on agar gel in the presence or absence of varying concentrations of the control anti-nucleolin antibodies, control immunoglobulins or compound HB-19. After 10 days of incubation at 37° C., the number of colonies present in each culture plate was counted.
# [2] = Half-life in serum at 37° C.; assay type: in vitro ADME; conditions: human or bovine (foetal calf); human serum or foetal calf serum at 37° C.
# Text: The term “standard peptide bond” means an amide bond of formula (—CONH—) which is normally present between 2 amino acids in a natural protein. Such a bond is sensitive to the action of proteases. The term “modified peptide bonds Ψ” means a chemical bond between 2 amino acids of chemical formula distinct from the standard peptide bond of formula (—CONH—). […] The term “protease”, also known as “peptidase” or “proteolytic enzyme”, means any enzyme which cleaves the standard peptide bonds in proteins. This process is known as proteolytic cleavage. This involves the use of a water molecule which is what leads to proteases being classified as hydrolases. The proteases namely include proteases known as N-peptidases which carry out the cleavage of the N-terminal end of proteins. These proteases are particularly inconvenient in terms of the in vivo stability of peptides without modified peptide bonds.
# HUVEC cells [3] = assay: In vitro proliferation of HUVEC cells (cell count); assay type: cell-based, human; conditions: added each day; counted after 6 days
# Experimental: (§1) FIG. 8. Effect of HB-19 on angiogenesis. A. Effect of HB19 tested on in vitro proliferation of HUVEC cells. 20000 HUVEC cells were cultured in wells and compound HB19 was added in different concentrations on each day. Cells were counted after 6 days of treatment. B. Effect of HB19 (1 μM) on the differentiation of HUVEC cells in a three-dimensional collagen gel cultured in the presence of HARP angiogenic factors (1 nM); VEGF (1 nM) and FGF-2 (3 nM) were also tested. After 4 days, tubular network structures were counted. The results are presented in arbitrary units. C. Effect of HB-19 on angiogenesis triggered HARP or FGF-2 in an in vivo angiogenesis model (/matrigel <<plug assay>>). Matrigel (300 μl) containing the indicated molecules is injected subcutaneously into mice. Mice were sacrificed after one week and matrigel was removed. 8 μm thick cuts were performed. After staining, the number of endothelial cells is estimated by image analysis. For each matrigel, 5 cuts and 4 mice were analysed per experimental point.
# Firstly, this effect was tested on the in vitro proliferation of endothelial cells (HUVEC: Human umbilical vein endothelial cells). 20000 HUVEC cells per well were cultured and compound HB19 was added in different concentrations on each day. Cells were counted after 6 days of treatment.
# CAM vessels = assay: Ex vivo angiogenesis model, chorio-allantoic membrane (CAM) of chicken embryo; conditions: 10 μM; 48 hours of incubation
# Experimental: FIG. 17. Inhibition of angiogenesis in an ex vivo CAM model. 20 μl of water containing or not (control) HB-19 (10 μM; 0.6 μg) or Nucant 7 (10 μM; 0.8 μg) are deposited on the surface of CAM. Observation of vessels is carried out after 48 hours of incubation.
# The effect of HB-19 and Nucant 7 on angiogenesis was tested in an ex vivo model of angiogenesis, the chorio-allantodoin membrane (CAM) of chicken embryo.
# 20 μl of water containing or not (control) HB-19 (10 μM; 0.6 μg) or Nucant 7 (10 μM; 0.8 μg) are deposited on the surface of CAM. Observation of vessels was carried out after 48 h of incubation
# [4] = Solubility in aqueous media; assay type: physicochemical
# MDA-MB231 tumours = assay: Tumour growth in MDA-MB231 xenograft model in athymic mice; assay type: in vivo, athymic mice (nude/nude)
# Experimental: FIG. 9. Effect of HB-19 on tumour growth in an MDA-MB231 xenograft model. Human mammary carcinoma MDA-MB231 cells were injected subcutaneously athymic mice (nude). When the tumour reached a volume of 200 mm^3, mice were treated by subcutaneous route as shown in graph in A. B. Observation and measurement of tumours in mice sacrificed at day 40. C. Tumour weight in mice sacrificed at day 40.
# FIG. 10. Effect of HB-19 on tumour growth in an MDA-MB231 xenograft model. Changes in tumour growth. Intraperitoneal (IP) or subcutaneous (SC) injections.
# Groups of 4 athymic mice (nude/nude) were injected in the flank with 2×10^6 cells. When tumour volume reached at least 200 mm^3, mice were either treated or not by injection in the tumour (peritumoral or subcutaneous route) of 100 μl every two days of a PBS solution (control group) or HB-19 solution (5 mg/kg) or a commonly used clinical agent, tamoxifen (also called […], 10 mg/kg). Tumour size was measured on days 7, 14, 21, 28, 34 and 40 using a calliper.
# In another experiment, HB19 (5 mg/kg) was administered by intraperitoneal route (IP) and peritumoral route (SC) (FIG. 10).
# HUVEC cells [5] = assay: Differentiation of HUVEC cells in three-dimensional collagen gel (tubular network structures); assay type: cell-based, human; conditions: 1 μM; HARP 1 nM, VEGF 1 nM, FGF-2 3 nM; 4 days
# Experimental: as §1
# The effect of the presence of HB19 (1 μM) on the differentiation of HUVEC cells in a three-dimensional collagen gel cultured in the presence of HARP angiogens (1 nM), VEGF (1 nM) and FGF-2 (3 nM) were also tested. After 4 days, tubular network structures were counted.
compound,measurement,setting,value
"CCCC[C@H](NC(=O)[C@H](CCCCNC(=O)[C@H](CCCNC(=N)N)NC(=O)[C@@H]1CCCN1C[C@@H](N)CCCCN)NC(=O)[C@H](CCC(=O)O)NC(=O)[C@H](CCCCNC(=O)[C@H](CCCNC(=N)N)NC(=O)[C@@H]1CCCN1C[C@@H](N)CCCCN)NC(=O)[C@@H]1CCCN1C(=O)CNC(=O)[C@H](CCCCNC(=O)[C@H](CCCNC(=N)N)NC(=O)[C@@H]1CCCN1C[C@@H](N)CCCCN)NC(=O)[C@H](CCCCN)NC(=O)[C@H](CCCCNC(=O)[C@H](CCCNC(=N)N)NC(=O)[C@@H]1CCCN1C[C@@H](N)CCCCN)NC(=O)[C@H](CCCNC(=N)N)NC(=O)[C@@H]1CCCN1C[C@@H](N)CCCCN)C(N)=O [HB19, 5[Kpsi(CH2N)PR]-TASP]",decrease in the number of colonies,[1],59%
same,half-life,[2],> 24 h
same,effect on proliferation of endothelial cells,HUVEC cells [3],leads to inhibition
same,inhibition of angiogenesis compared to the control (image analysis),CAM vessels,~50%
same,solubility in aqueous media,[4],totally soluble
same,anti-tumour action by intraperitoneal route (IP) versus peritumoral route (SC),MDA-MB231 tumours; 5 mg/kg,equally effective
same,tumour size of untreated control mice relative to treated mice,"MDA-MB231 tumours; 5 mg/kg every two days, peritumoral or subcutaneous",7 ×
same,tumour detectability (volume),"MDA-MB231 tumours; HB-19 5 mg/kg, after 21 days of treatment",undetectable
same,tumours removed at sacrifice,"MDA-MB231 tumours; HB-19 5 mg/kg, after 40 days of treatment",no tumours were found
same,"anatomical examination of organs, blood formula, platelet count",MDA-MB231 tumours; end of the experiment,did not reveal any visible sign of tissue toxicity nor any change in blood formula or platelet count
same,physiological or behavioural signs in treated mice,MDA-MB231 tumours; in the course of treatment,no abnormal physiological or behavioural sign was observed
same,effect on differentiation of HUVEC cells in collagen gel,HUVEC cells [5],inhibits the differentiation
